The nature of series [1]: Solubility testing in toluene at −30° C. The settings on record: at least one week.
For series [2] the following is noted: PLUTOsol APF, 2.5% by weight iron.
Series [3] can be described thus: Viscosity of 2.5 wt % iron solutions in toluene (Bohlin CVO rheometer). The format is physicochemical. The settings on record: toluene solution at 2.5 wt % Fe. The method, then: Viscosities of 2.5 wt % iron solutions were determined using a Bohlin Instruments CVO rheometer using a 4° 40 mm cone and plate at shear rates of either 2 Pa or 0.5 Pa.
The conditions of series [4]: additive in diesel fuel, 20 ppm iron.
The conditions of series [5]: PLUTOsol APF, 2.5% by weight iron. The source holds these as a separate data set.
For series [6] the following is noted: additive 20 ppm iron.

“And” between values parts separate entries of the source, which are not always exact repeats. Identical values can stand only once. Like-named read-outs stand apart in the source and are kept apart here.

Take “1,1-diferrocenyl-3-methyl butane [Compound 6]”: in series [1], the “Solubility at −30° C., 2.5 wt % Fe (appearance)” value was “Clear” and the “Solubility at −30° C., 5.0 wt % Fe (appearance)” value is given as “Powder”.

Consider 2,2-bisferrocenylpropane [Compound 1], for which the “Vapour Pressure” value is reported as 1 mbar in series [2] (20° C.); 2 mbar in series [2] (40° C.); 3 mbar in series [2] (50° C.); 5 mbar in series [2] (60° C.); 8 mbar in series [2] (70° C.); 13 mbar in series [2] (80° C.). Also, the “Vapour Pressure” value in series [2] (90° C.) was determined as 20 mbar. Further, in series [3], the “Viscosity at −30° C. (mPas)” value is recorded as 5.4 mPas. Besides, the “effect on the stability of the fuel (conclusion)” value in series [4] is listed as “does not adversely affect the stability of the fuel”. Besides, the Viscosity in series [5] (0° C.) turned out to be 4.8 mPas; in series [5] (20° C.), 2.7 mPas; in series [5] (25° C.), 2.5 mPas; in series [5] (40° C.) it was 2.2 mPas; in series [5] (50° C.), 2.2 mPas; in series [5] (60° C.), 2.0 mPas. Also, the Viscosity is 2.0 mPas in series [5] (90° C.); 6.8 mPas in series [5] (−10° C.); 8.6 mPas in series [5] (−15° C.); 10.5 mPas in series [5] (−20° C.); 14.8 mPas in series [5] (−30° C.); 21 mPas and 21.0 mPas in series [5] (−40° C.). Besides, in series [6], the “fuel stability (conclusion)” value is given as “as good as that provided by the parent compound (ferrocene)”.

The values are drawn from US7452388B2, “Compositions comprising dimeric or oligomeric ferrocenes” (Innospec Limited, priority 2000, dated 2008).
